Assay results as given in paper PMC10424178, “Discovery of 5-Phenylpyrazolopyrimidinone Analogs as Potent Antitrypanosomal Agents with In Vivo Efficacy” (Journal of Medicinal Chemistry, 2023).

Tested on: T. b. brucei
Test: Antitrypanosomal assay, T. brucei Squib 427, resazurin viability

SMILES	reduction in potency against T. b. brucei compared with 30 (relative to 30)	reduction in potency against T. b. brucei compared with 15 (relative to 15)
CC(C)c1n[nH]c2c(=O)[nH]c(-c3ccc(Br)cc3)nc12 [compound 32, 5-(4-Bromophenyl)-3-isopropyl-1,6-dihydro-7H-pyrazolo[4,3-d]pyrimidin-7-one]	four-fold reduction in potency	–
COc1ccc(-c2nc3c(C(C)C)n[nH]c3c(=O)[nH]2)cc1 [compound 33, 3-Isopropyl-5-(4-methoxyphenyl)-1,6-dihydro-7H-pyrazolo[4,3-d]pyrimidin-7-one]	–	three times less active
